Bioassay records from PubChem BioAssay.
Rows were chosen to be rich in hits. Some 0.73% of all compounds tested hit in one or more screens of this group.
RAD52 anneal inh = blocks human RAD52 DNA annealing; P43351; recombinant RAD52 DNA annealing, FRET fluorescence; inhibition, % at 18.7 µM; 0.46% of 360,000 active; AID 651710;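 active = every replicate showing at least 50% inhibition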
Xi reactivation = X-chromosome reactivation activator; XiGFP mouse fibroblasts, % GFP-positive cells imaging, 3 d; cells co-treated with 5-aza-dC sensitizer; scaled so ellipticine positive control = 100%; activation, % at 7.58 µM; 0.055% of 360,000 active;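 active = mean normalized replicate activation at least 10% and every replicate at or above 10%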;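 also: 0% = median of on-plate neutral control wells and 100% = ellipticine 6 µM median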
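Schedule: 3 d treatment, 15 min room-temperature fixation; system: 68-5-11 XiGFP fibroblast line; buffer or medium: DMEM plus 5-aza-dC sensitizer; control set: ellipticine 6 µM positive control; compound: one concentration, pinned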
RAD54 branch = blocks human RAD54 Holliday junction branch migration | FAM/BHQ fluorescence | 0.14% of 360,000 active | Q92698 | inhibition, % at 10.4 µM | AID 602329;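 active = mean normalized replicate activity at least 40 and at least half of replicates scoring 40 or more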;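 also: 0% = median of neutral control wells and 100% = median of positive control wells; inhibitors cause a drop in the FAM fluorescence signal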
Yeast UUG start-1 = yeast start codon fidelity modulation; activity score, % at 18.7 µM; actives 0.13% (n = 350,000); S. cerevisiae UUG-firefly luciferase reporter, luminescence/redox ratio; AID 602363;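 active means replicate mean at a twofold rise or more, about +100% in these data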;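 further: firefly luciferase made from a UUG start codon reports start codon fidelity; reporter light over untreated wells divided by growth signal over untreated wells; some hits fall short of that in this replicate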
E-selectin induc = induces E-selectin expression in human endothelial cells; P16581; HUVEC E-selectin immunofluorescence imaging; normalized: neutral wells 0, TNF-alpha wells 100; activation, % at 7.58 µM; 0.37% of 260,000 active; AID 686992;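 active = mean E-selectin-positive cell signal at least 10% of the positive control, reached in at least 60% of replicates, without over 20% cell loss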
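Test system – human umbilical vein endothelial cells (HUVEC), E-selectin induction · Input – 3,000 HUVEC seeded per well · Buffer or medium – EGM-2, gelatin · Compound dosing – single-point compound dose · Detection – immunofluorescence imaging · Measure – percent E-selectin-positive cells · Controls – TNF-alpha high, DMSO low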
Yeast UUG start-2 = yeast start codon fidelity modulation. activation, % at 38 µM. S. cerevisiae UUG-start firefly luciferase, luminescence, 4 h; 100% means double the DMSO signal. shares compounds with Yeast UUG start-1. AID 652061. 540 tested, under 10 active;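 active = signal increase whose fitted curve reaches an absolute level of 40 at a concentration under 10 µM; inactive = activity opposite to the expected increase, or the rest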
Numbers without * were called inactive; i = inactive; · = no result given.

item | molecule | RAD52 anneal inh | Xi reactivation | RAD54 branch
1 | c1ccc2c(c1)nc(N1CCOCC1)c1nnnn12 | -19 | 0 | -3
2 | NS(=O)(=O)c1ccc(CCNC(=O)c2ccccc2OCc2ccc(F)cc2)cc1 | -21 | 0 | -7
3 | CCOc1ccccc1C(=O)NCC(=O)OCC(=O)NCCc1ccc(S(N)(=O)=O)cc1 | · | · | 11
4 | CCc1cccc2c(C(=O)C(F)(F)F)cn(CC(=O)NCC3CCCO3)c12 (stereo unspecified) | -9 | 0 | ·
5 | CC(C)C(=O)c1cn(CC(=O)NCC2CCCO2)c2ccccc12 (stereo unspecified) | · | · | 0
6 | CC(C)c1[nH]nc2c1C(c1ccccc1)N(c1ccccc1)C2=O (stereo unspecified) | 0 | 0 | ·
7 | Cc1ccc(C2=NNC(c3cccc(F)c3)S2)cc1 (stereo unspecified) | -1 | 0 | ·
8 | Fc1cccc(C2NN=C(c3ccccc3)S2)c1 (stereo unspecified) | -18 | 0 | -8
9 | CCCc1nc2ccc(C)cn2c1Cc1ccccc1C(F)(F)F | -3 | · | -8
10 | CCCc1nc2ccc(C)cn2c1Cc1ccccc1OC | -14 | 0 | -7
11 | CCCC(=O)Nc1ccc2c(c1)C(=O)N(C)C[C@H](OC)[C@@H](C)CN(Cc1ccccn1)[C@H](C)CO2 | -15 | 0 | -2
12 | O=C(CN1CCOCC1)NCC[C@H]1CC[C@H](NC(=O)Nc2ccc(F)cc2)[C@H](CO)O1 | 26 | 0 | -12
13 | O=C(CN1CCOCC1)NCC[C@@H]1CC[C@H](NC(=O)Nc2ccc(Cl)cc2)[C@@H](CO)O1 | -1 | 0 | -19
14 | CO[C@H]1CN(C)C(=O)c2cc(NS(C)(=O)=O)ccc2OC[C@@H](C)N(C)C[C@H]1C | -3 | 0 | 2
15 | C[C@H]1CN([C@@H](C)CO)S(=O)(=O)c2ccc(-c3cccnc3)cc2O[C@@H]1CN(C)C(=O)c1cccc(F)c1 | 5 | 4 | -3

item | Yeast UUG start-1 | E-selectin induc | Yeast UUG start-2
1 | -18 | 1 | ·
2 | -9 | 0 | ·
3 | 555* | · | 1
4 | · | 0 | -6
5 | 449* | · | 8
6 | · | 1 | ·
7 | · | 6 | ·
8 | 267* | · | -13
9 | 105* | 1 | 0
10 | 45 | · | ·
11 | -20 | 0 | ·
12 | 184* | 0 | i
13 | 119* | 1 | i
14 | · | 0 | ·
15 | 214* | 0 | i

(further entries)
item | molecule | RAD52 anneal inh | Xi reactivation | RAD54 branch
16 | C[C@@H]1CN([C@H](C)CO)S(=O)(=O)c2ccc(-c3cccc(F)c3)cc2O[C@@H]1CN(C)S(=O)(=O)c1ccc(F)cc1 | 1 | -1 | 5
17 | CC(C)CC#Cc1ccc2c(c1)O[C@@H](CN(C)C(=O)c1cccnc1)[C@@H](C)CN([C@@H](C)CO)S2(=O)=O | -3 | -2 | -12
18 | C[C@@H]1CN([C@@H](C)CO)S(=O)(=O)c2ccc(-c3cccnc3)cc2O[C@H]1CN(C)C(=O)c1cccc(F)c1 | -1 | 0 | 5
19 | Cc1ccc(S(=O)(=O)N(C)C[C@H]2Oc3cc(-c4cccc(F)c4)ccc3S(=O)(=O)N([C@@H](C)CO)C[C@@H]2C)cc1 | 21 | -1 | -7
20 | COc1nc(C)ccc1-c1noc(-c2cccs2)n1 | -36 | 0 | -3
21 | COc1nc(-c2ccccc2)ccc1-c1noc(-c2cccs2)n1 | · | · | -12
22 | COc1ccc2oc(C(=O)OCC(=O)NCCc3ccccc3)c(C)c2c1 | -27 | 0 | 5
23 | COc1ccc2oc(C(=O)OCC(=O)N3CCN(C(C)=O)CC3)c(C)c2c1 | 3 | 0 | 4
24 | CCOc1ccc2oc(C(=O)OCC(=O)NC(=O)NC)c(C)c2c1 | -30 | · | -5
25 | COc1ccc2oc(C(=O)OCC(=O)N3CCCCC3)c(C)c2c1 | -22 | 0 | -1
26 | CCCNC(=O)N1CC2(C1)CN(C(=O)NC(C)C)[C@H](CO)c1c2c2ccc(OC)cc2n1C | · | 0 | ·
27 | C[C@@H]1CN([C@@H](C)CO)C(=O)c2cccc(NS(=O)(=O)c3ccccc3)c2O[C@H]1CN(C)C(=O)Nc1ccc(C(F)(F)F)cc1 | 12 | 0 | -6
28 | CCc1ccc(NC(=O)NCCN2CCCCC2)cc1 | -6 | 0 | 3
29 | CCc1ccc(N2CCN(CCNC(=O)Nc3ccccc3)CC2)cc1 | -9 | 0 | 2
30 | COc1cccc(C(C(=O)NCc2ccco2)N(Cc2ccco2)C(=O)Cn2nnc3ccccc32)c1 (stereo unspecified) | · | · | -11

item | Yeast UUG start-1 | E-selectin induc | Yeast UUG start-2
16 | -15 | 0 | ·
17 | 121* | 0 | i
18 | 3 | 0 | ·
19 | 106* | 24 | i
20 | 528* | · | -24
21 | -12 | · | ·
22 | -9 | -1 | 0
23 | -4 | 0 | 1
24 | -17 | 0 | -4
25 | -13 | 0 | ·
26 | · | 0 | ·
27 | -7 | 0 | ·
28 | 108* | · | 2
29 | -4 | · | ·
30 | -14 | · | ·

(next part)
item | molecule | RAD52 anneal inh | Xi reactivation | RAD54 branch
31 | COc1ccc(OC)c(C(C(=O)NCc2ccco2)N(C(=O)Cn2nnc3ccccc32)C(C)C)c1 (stereo unspecified) | · | · | 1
32 | CCN(CC)CC(=O)N1c2ccccc2CCc2ccc(NC(=O)c3cc(OC)c(OC)c(OC)c3)cc21 | 5 | 0 | -3
33 | Cc1cnn(Cc2ccccc2)c1N | · | · | 1
34 | COc1ccc(Nc2cc(C)nc(NCc3ccccc3)n2)cc1 | 13 | 0 | 7
35 | O=C(C1CC1)N1CC[C@@H]2[C@H]1c1cc(C#Cc3ccccc3F)ccc1N[C@@H]2CO | · | 0 | 8
36 | COc1cc(C)ccc1OCC(=O)OCC(=O)c1cc(C)n(CC2CCCO2)c1C (stereo unspecified) | -8 | 0 | -10
37 | COc1cc(C(=O)OCC(=O)c2cc(C)n(CC3CCCO3)c2C)cc(OC)c1C (stereo unspecified) | -21 | 0 | 0
38 | Cc1ccc(-c2cnc3c(c2)C(=O)N([C@@H](C)CO)C[C@@H](C)[C@H](CN(C)CC2CCOCC2)O3)cc1 | 5 | 1 | 1
39 | C[C@@H]1CN([C@@H](C)CO)C(=O)c2cc(NS(=O)(=O)c3ccccc3)ccc2O[C@@H](C)CCCCO[C@@H]1CN(C)C | 3 | 0 | 0
40 | O=[N+]([O-])c1cc(C(F)(F)F)ccc1Oc1cccnc1[N+](=O)[O-] | · | 0 | -5
41 | O=C(Nc1ccc(F)cc1)c1ccccc1Oc1ccc(C(F)(F)F)cc1[N+](=O)[O-] | · | 0 | ·
42 | O=C(C[C@H]1C[C@H]2c3cc(NC(=O)NC4CCCC4)ccc3O[C@H]2[C@@H](CO)O1)NCc1ccccc1 | 1 | 0 | -8
43 | N#C[C@@H]1[C@@H](c2ccc(/C=C/c3ccccc3)cc2)[C@@H](CO)N1C(=O)Cc1ccccn1 | -90 | 0 | 0
44 | COC(=O)c1c2oc(c1C(=O)OC)C(=O)N[C@@H](Cc1ccccc1)Cn1cc(nn1)CNC(=O)[C@H](Cc1ccccc1)NC(=O)N[C@@H](CO)CC2 | 12 | · | -4

item | Yeast UUG start-1 | E-selectin induc | Yeast UUG start-2
31 | 196* | · | 18
32 | active | 0 | 0
33 | 605* | · | -6
34 | 624* | 1 | -7
35 | -1 | 0 | ·
36 | 6 | 15 | ·
37 | 107* | · | 6
38 | -9 | 1 | ·
39 | 11 | 1 | ·
40 | 190* | · | 17
41 | · | 1 | ·
42 | -6 | 0 | ·
43 | -2 | 0 | ·
44 | 113* | · | i

From compound 41 as far as 44, as listed above:
item | molecule | RAD52 anneal inh | Xi reactivation | RAD54 branch
41 | O=C(Nc1ccc(F)cc1)c1ccccc1Oc1ccc(C(F)(F)F)cc1[N+](=O)[O-] | · | 0 | ·
42 | O=C(C[C@H]1C[C@H]2c3cc(NC(=O)NC4CCCC4)ccc3O[C@H]2[C@@H](CO)O1)NCc1ccccc1 | 1 | 0 | -8
43 | N#C[C@@H]1[C@@H](c2ccc(/C=C/c3ccccc3)cc2)[C@@H](CO)N1C(=O)Cc1ccccn1 | -90 | 0 | 0
44 | COC(=O)c1c2oc(c1C(=O)OC)C(=O)N[C@@H](Cc1ccccc1)Cn1cc(nn1)CNC(=O)[C@H](Cc1ccccc1)NC(=O)N[C@@H](CO)CC2 | 12 | · | -4

item | Yeast UUG start-1 | E-selectin induc | Yeast UUG start-2
41 | · | 1 | ·
42 | -6 | 0 | ·
43 | -2 | 0 | ·
44 | 113* | · | i
